Experimental data: ChEMBL document CHEMBL1132460, “Affinity and selectivity of matrix metalloproteinase inhibitors: a chemometrical study from the perspective of ligands and proteins” (J Med Chem, 1999)

By UniProt entry, the sequences of proteins in these tests, tags left out. Where a name states a change or a piece, a line headed by the entry shows the natural chain unless it says otherwise.
UniProt P22894: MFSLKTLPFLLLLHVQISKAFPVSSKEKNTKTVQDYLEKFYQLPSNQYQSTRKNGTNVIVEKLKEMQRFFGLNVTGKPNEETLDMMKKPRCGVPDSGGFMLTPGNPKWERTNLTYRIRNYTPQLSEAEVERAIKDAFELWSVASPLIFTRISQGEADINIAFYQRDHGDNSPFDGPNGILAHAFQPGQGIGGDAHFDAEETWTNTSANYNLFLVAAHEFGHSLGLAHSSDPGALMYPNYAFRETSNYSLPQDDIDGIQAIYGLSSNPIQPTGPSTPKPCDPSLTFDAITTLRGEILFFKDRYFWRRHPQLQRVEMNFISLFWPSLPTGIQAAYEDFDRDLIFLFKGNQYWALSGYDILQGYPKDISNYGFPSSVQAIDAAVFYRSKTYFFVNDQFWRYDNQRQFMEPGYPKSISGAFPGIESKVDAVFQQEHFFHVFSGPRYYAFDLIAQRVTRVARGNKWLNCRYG

Biological target: Neutrophil collagenase (Homo sapiens, UniProt P22894)
Assay: Inhibitory concentration against human matrix metalloprotease-8 (human neutrophil collagenase, MMP-8)

Compound O=C(NO)[C@H]1Cc2c([nH]c3ccccc23)CN1S(=O)(=O)c1ccc(Oc2ccccc2)cc1 has an IC50 of 8 nM.
